Data set [1] is described as follows: In vitro permeation by Franz diffusion cells, mucosa with versus without steel microneedle system (AdminPatch). To be noted: saturated human insulin solution in natural human saliva; acceptor 0.025 molar HEPES buffer pH 7.4; FIG. 2.
Data set [2] can be described thus: Solubility of the active ingredient in the acceptor medium. The class given is physicochemical. To be noted: phosphate buffer (pH 7.4) without further additives.
Data set [3] can be described thus: In vitro permeation by Franz diffusion cells, dissolving microneedle system loaded with active ingredient, applied into the mucosa versus in reverse. To be noted: dissolving microneedle system loaded with salbutamol sulphate; acceptor phosphate buffer pH 7.4; FIG. 7.

Consider human insulin, for which, in data set [1], the “active ingredient flux after pretreatment with a microneedle system” value is reported as “could be observed only after pretreatment” and the “permeated active ingredient without pretreatment” value was “not possible to detect any permeated active ingredient”.
Turning to salbutamol sulphate, the “solubility in acceptor medium” value in data set [2] is on record as “very easily dissolved”. The “active ingredient flux with the microneedle system applied in the mucosa, factor higher in comparison to the system without penetration into the mucosa” value in data set [3] came to 2.

(Values after patent publication US20240024647A1, “MUCOSA PERFORATION” (LTS LOHMANN THERAPIE-SYSTEME AG, priority 2020, published 2024).)
